This note sets out measurements from published antibiotic growth screens (doi:10.1038/s41589-023-01349-8).

The other results are listed elsewhere or left out.

The subject of this experiment is A. baumannii ATCC 17978. In words: relative growth (fraction of control); higher = less inhibition. Particulars: 50 µM.
The molecule `COc1ccc(S(=O)(=O)N[C@H]2CC[C@@H](CC(=O)N3CCC(Cc4ccccc4)CC3)O[C@H]2CO)cc1` came in with a relative growth of 0.846.

Regarding `COCC#Cc1ccc2c(c1)O[C@H](CN(C)Cc1ccccc1F)[C@H](C)CN([C@@H](C)CO)S2(=O)=O`, the relative growth amounted to 0.638.

In turn, `C[C@H]1CCc2c(C(=O)O)csc2C1` had a relative growth of 0.851.

`O=C(C[C@H]1CC[C@@H]2[C@H](COC[C@@H](O)CN2S(=O)(=O)c2cccc(Cl)c2)O1)N1CCOCC1` gave a relative growth of 1.04.

The molecule `C[C@H]1CN([C@@H](C)CO)S(=O)(=O)c2ccc(-c3ccncc3)cc2O[C@@H]1CN(C)C(=O)c1cccc(F)c1` yielded a relative growth of 0.911.

`O=C(N[C@H]1C=C[C@@H](CC(=O)N2CCOCC2)O[C@@H]1CO)c1ccccn1` registered a relative growth of 0.813.

As for `Cc1nn(CC(=O)O)c(=O)c2cccn12`, the relative growth was 1.11.

The molecule `CCN(CC)S(=O)(=O)c1nnc[nH]1` displayed a relative growth of 0.954.

In turn, `Cl.Clc1ccc2nsnc2c1NC1=NCCN1` showed a relative growth of 1.29.

`COc1cc(N2CCC(N(C)C)CC2)ccc1Nc1ncc(Cl)c(Nc2ccccc2P(C)(C)=O)n1`: the relative growth was determined as 0.999.

`OCc1cn(-c2ccccc2)nn1` returned a relative growth of 1.02.

As to `CCc1c(O)nc2ccccn2c1=O`, the relative growth amounted to 0.897.

The molecule `C#CCn1c(=O)c2c(OC)ccnc2n(C)c1=O` had a relative growth of 1.14.

Take `CN([NH2+][O-])C(=O)N[C@@H]1[C@@H](O)[C@H](O)[C@@H](CO)O[C@@H]1O`: the relative growth was 1.01.

In turn, `COc1ccc(S(=O)(=O)N2C[C@H](O)COC[C@H]3O[C@H](CC(=O)N[C@@H]4CCN(Cc5ccccc5)C4)CC[C@@H]32)cc1` came in with a relative growth of 0.925.

Take `COc1ccc(-c2cn(CCNC(=O)[C@H](Cc3ccccc3)NS(=O)(=O)c3ccc(C)cc3)nn2)cc1OC`: the relative growth came out at 1.01.

The molecule `CC1=CC(=O)C(C(C)C)=CC1=O` gave a relative growth of 0.898.

`O=C(CN1CCOCC1)N[C@H]1CC[C@@H](CCNS(=O)(=O)c2ccccc2F)O[C@H]1CO` showed a relative growth of 1.1.

For `O=C(O)c1cn(C2CC2)c2cc(N3CCNCC3)c(F)cc2c1=O`, the relative growth turned out to be 0.17.

Molecule `C[C@@H]1CN([C@H](C)CO)S(=O)(=O)c2ccc(C#CC3CC3)cc2O[C@@H]1CN(C)C(=O)C1CCCCC1` returned a relative growth of 0.857.

For the molecule `COC(=O)Nc1nc2ccc(Sc3ccccc3)cc2[nH]1`, the relative growth stood at 1.38.

With `COc1ccc(-c2nc(-c3ccc(C)cc3C)cs2)cc1`, the relative growth turned out to be 0.985.

Consider `COc1ccccc1CNC(=O)C[C@H]1CC[C@@H]2[C@H](COC[C@H](O)CN2C(=O)Nc2ccc(F)cc2)O1`, for which the relative growth came out at 1.04.

For `CCCCCCCCCC[C@@H](C(=O)O)[C@]1(C(=O)O)CCC(=O)O1`, the relative growth came to 1.2.

With `Cn1c(=O)c2c(nc(N3CCCCC3)n2CCN)n(C)c1=O`, the relative growth turned out to be 0.917.

The molecule `Cl.Cl.OCCN1CCN(CCCN2c3ccccc3Sc3ccc(C(F)(F)F)cc32)CC1` had a relative growth of 0.489.

In the case of `O=C(C[C@H]1CC[C@H]2[C@@H](COC[C@@H](O)CN2S(=O)(=O)c2cccc(F)c2)O1)NCCCN1CCOCC1`, the relative growth was determined as 1.02.

`COc1oc(C(=O)NC2CCCCC2)c(-c2ccc(Cl)cc2)c1S(=O)(=O)c1ccc(C(F)(F)F)cc1[N+](=O)[O-]` gave a relative growth of 0.992.

The molecule `CC(=O)OC(CC(=O)O)[N+](C)(C)C.[Cl-]` (centres undefined) showed a relative growth of 1.12.

In turn, `COc1ccc(S(=O)(=O)N(C)C[C@H]2Oc3cc(C#CC4CCCC4)ccc3S(=O)(=O)N([C@@H](C)CO)C[C@H]2C)cc1` displayed a relative growth of 1.26.

As to `COc1ccc(/C=C/C(=O)c2ccc(O)cc2O)cc1`, the relative growth is 1.04.

Regarding `COc1cccc(S(=O)(=O)N[C@H]2CC[C@H](CC(=O)NC3CCC3)O[C@@H]2CO)c1`, the relative growth was determined as 1.04.

In turn, `C[C@@H]1CN([C@@H](C)CO)S(=O)(=O)c2ccc(C3=CCCCC3)cc2O[C@@H]1CN(C)C(=O)C1CCOCC1` yielded a relative growth of 1.24.

As for `COc1ccc([Si](C)(C)[C@H]2[C@H](CCO)O[C@@]3(C(=O)N(Cc4cccc(N5C(=O)c6cccc7cccc5c67)c4)c4ccccc43)[C@@H]2C)cc1`, the relative growth amounted to 1.4.

Consider `CC(=O)N[C@@H]1C[C@H](O)[C@@H](O)CCC(=O)N[C@H](c2ccccc2)COC1=O`, for which the relative growth was 1.

Take `CO[C@H]1CN(C)C(=O)c2ccc(NS(=O)(=O)c3cn(C)cn3)cc2OC[C@H](C)N(CCC(F)(F)F)C[C@H]1C`: the relative growth is 1.16.

In turn, `NCCOc1ccccc1Cc1ccccc1` came in with a relative growth of 0.745.

In turn, `C[C@@H]1CN([C@H](C)CO)S(=O)(=O)c2ccc(C3=CCCC3)cc2O[C@@H]1CN(C)S(=O)(=O)c1ccc(F)cc1` had a relative growth of 1.

With `CN(C)CCCN1C(=O)[C@@H]2[C@@H](C1=O)[C@@H]1C=C[C@@H]2C1`, the relative growth is 0.915.

Molecule `Cc1cc(=O)oc2cc(O[C@H]3O[C@@H](CO)[C@@H](O)[C@@H](O)[C@@H]3O)ccc12` came in with a relative growth of 1.02.

On to `Cc1cc(C)n(CCC(=O)O)n1`, for which the relative growth was 0.912.

On to `O=C(C1=C[C@H](c2coc3ccccc3c2=O)C[C@H](OCCCCO)O1)N1CCOCCOCCOCCOCC1`, for which the relative growth is 1.18.

Molecule `COc1ccc2c(c1)OCC(Cc1ccc(OC)c(O)c1)C2=O` (centres undefined) gave a relative growth of 1.16.

In turn, `Cc1ccc(S(=O)(=O)N[C@H](C(=O)NCCn2cc(-c3cccc(/C=C/C(=O)NO)c3)nn2)C(C)C)cc1` showed a relative growth of 1.1.

As for `Cc1cc(C(C)(C)C)c(O)c(C(C)(C)C)c1`, the relative growth amounted to 0.987.

For the molecule `COCCOC(=O)N1C(=O)[C@@]2(c3cc(C#CCC(C(=O)OC)C(=O)OC)ccc31)[C@H](c1ccccc1OCCO)N1[C@H](c3ccccc3)[C@H](c3ccccc3)OC(=O)[C@H]1[C@@H]2C(=O)Nc1nc2ccccc2s1`, the relative growth stood at 0.985.

In the case of `CC(C)NC(=O)N[C@@H]1C=C[C@H](CC(=O)O)O[C@@H]1CO`, the relative growth amounted to 0.895.

With `CCCC[C@H](NC(C)=O)C(=O)N[C@@H](CCC(N)=O)C(=O)N[C@@H](Cc1c[nH]cn1)C(=O)N[C@H](Cc1ccccc1)C(=O)N[C@@H](CCCNC(=N)N)C(=O)N[C@H](Cc1c[nH]c2ccccc12)C(=O)NCC(N)=O`, the relative growth turned out to be 0.902.

As to `CN1CCN(C(=O)C[C@H]2C=C[C@@H](NC(=O)c3ccc4c(c3)OCO4)[C@H](CO)O2)CC1`, the relative growth was 1.17.

For `O=C(C[C@H]1CC=CCCC(=O)OCCNC1=O)NCCO`, the relative growth was 1.1.

Molecule `CN1CCN(C(=O)C[C@H]2CC[C@@H](NC(=O)Cc3ccccn3)[C@@H](CO)O2)CC1` returned a relative growth of 1.02.

On to `Cc1cc2nc3c(=O)[nH]c(=O)nc-3n(C[C@@H](O)[C@@H](O)[C@@H](O)COP(=O)([O-])O)c2cc1C.[Na+]`, for which the relative growth worked out at 0.917.

`N/N=C(\C(=O)O)c1ccccc1N`: the relative growth stood at 1.04.

Take `COc1ccc([Si](C)(C)[C@@H]2[C@@H](CCO)O[C@]3(C(=O)N(Cc4cccc(N5CCCCC5=O)c4)c4ccccc43)[C@H]2C)cc1`: the relative growth amounted to 0.744.

In turn, `O=C(C[C@@H]1C=C[C@@H](NC(=O)CN2CCOCC2)[C@H](CO)O1)NCCc1ccncc1` yielded a relative growth of 0.967.

`CCCN1C[C@H](C)[C@@H](OC)CN(C)C(=O)c2cc(NS(=O)(=O)c3cn(C)cn3)ccc2OC[C@H]1C` came in with a relative growth of 0.951.

For `C[C@@H]1CN([C@@H](C)CO)C(=O)c2cc(C#Cc3ccccc3F)cnc2O[C@@H]1CN(C)C(=O)Cc1cccnc1`, the relative growth came out at 1.06.

For the molecule `C[C@@H]1CN([C@H](C)CO)S(=O)(=O)c2ccc(C#Cc3ccccn3)cc2O[C@@H]1CN(C)Cc1ccccc1`, the relative growth is 0.952.

With `O=C(C[C@H]1C=C[C@@H](NC(=O)CN2CCOCC2)[C@@H](CO)O1)NCCc1ccccc1`, the relative growth was determined as 1.02.

For `O=c1cc(CO)occ1O`, the relative growth is 0.924.

With `COCCOC(=O)N1C(=O)[C@@]2(c3cc(C#CCNC(N)=O)ccc31)[C@H](C(=O)N1CCc3cc(OC)c(OC)cc3C1)[C@H]1C(=O)O[C@H](c3ccccc3)[C@H](c3ccccc3)N1[C@@H]2c1ccccc1OCCO`, the relative growth stood at 0.813.

The molecule `C[N+](C)(C)CCCCCC[N+](C)(C)C.[Br-].[Br-]` displayed a relative growth of 0.911.

Molecule `CN(C)Cc1cn(CC[C@H]2CC[C@@H](NC(=O)Cc3cccnc3)[C@@H](CO)O2)nn1` yielded a relative growth of 0.943.

Turning to `COc1ccccc1S(=O)(=O)N(C)C[C@@H]1Oc2cc(C#CCC(C)C)ccc2S(=O)(=O)N([C@H](C)CO)C[C@@H]1C`, the relative growth came out at 1.19.

Molecule `NC(=S)CN1CCCC1=O` yielded a relative growth of 0.886.

`O=C(C[C@@H]1CC[C@H]2[C@@H](COC[C@@H](O)CN2C(=O)c2ccncc2)O1)NC1CCC1` yielded a relative growth of 1.07.

For the molecule `Cn1c(CN)nc2ccccc2c1=O`, the relative growth was 1.02.

Molecule `Cc1nc(S(=O)(=O)N[C@H]2CCS(=O)(=O)C2)cn1C` displayed a relative growth of 1.01.

In the case of `CC(C)c1c(O)c(-c2cc3c(c(C(C)C)c2O)CCC2C(C)(C)CCC[C@]32C)cc2c1CCC1C(C)(C)CCC[C@]21C` (some centres undefined), the relative growth came out at 0.992.

For the molecule `CCc1nc(N)nc(N)c1-c1ccc(Cl)cc1`, the relative growth amounted to 0.231.

Consider `Cn1nnc2cc(NC(=O)NCCO)ccc21`, for which the relative growth was 0.906.

Regarding `CC(=O)[C@@]1(O)CC[C@H]2[C@@H]3C[C@H](C)C4=CC(=O)C=C[C@]4(C)[C@@]3(F)[C@@H](O)C[C@@]21C`, the relative growth amounted to 0.876.

With `CC1=NN2NC(C(F)(F)F)=NN2C(=O)C1`, the relative growth came out at 1.03.

Regarding `CCCc1nn(C)c2c(=O)[nH]c(-c3cc(S(=O)(=O)N4CCN(C)CC4)ccc3OCC)nc12.O=C(O)CC(O)(CC(=O)O)C(=O)O`, the relative growth was 1.12.

The molecule `NNS(=O)(=O)c1ccc(Oc2ccc(S(=O)(=O)NN)cc2)cc1` registered a relative growth of 1.04.

In turn, `C[C@@H]1CN([C@H](C)CO)S(=O)(=O)c2ccc(C#Cc3cccc(F)c3)cc2O[C@@H]1CN(C)S(=O)(=O)c1cn(C)cn1` returned a relative growth of 0.874.

For the molecule `Cc1cc(C)c2c(c1)NC(=O)C[C@H]2c1cccc(Cl)c1Cl`, the relative growth was 1.32.

In the case of `NC1(C#Cc2cncc(C(=O)N3CCOCC3)c2)CCCCC1`, the relative growth worked out at 1.1.

With `CC(=O)ON1C(C)(C)C=C(C(N)=O)C1(C)C`, the relative growth was 0.929.

In turn, `O=C1/C(=C/c2cccs2)CCC/C1=C\c1cccs1` displayed a relative growth of 1.

In turn, `COCC(=O)Nc1ccc2c(c1)OC[C@H](C)N(Cc1ccccc1OC)C[C@@H](C)[C@@H](OC)CN(C)C2=O` yielded a relative growth of 1.01.

The molecule `COc1ccc(S(=O)(=O)N2C[C@@H](O)COC[C@H]3O[C@H](CC(=O)NCc4ccc(Cl)c(Cl)c4)CC[C@@H]32)cc1` yielded a relative growth of 0.888.

The molecule `Cc1cc(C(=O)O)cc(S(N)(=O)=O)c1` showed a relative growth of 1.08.

With `C#CCCCCCCCCCCCC(O)CC(O)COC(C)=O.C=CCCCCCCCCCCCC(O)CC(O)COC(C)=O` (centres undefined), the relative growth came to 0.813.
